Measured values reported in patent US9278981B2, “Compounds and compositions for inhibiting the activity of ABL1, ABL2 and BCR-ABL1” (Novartis AG, priority 2012, dated 2016).

Amino acid sequences for entries named in this document (tags omitted). Residues count along the entry.
UniProt P00519, 64-515: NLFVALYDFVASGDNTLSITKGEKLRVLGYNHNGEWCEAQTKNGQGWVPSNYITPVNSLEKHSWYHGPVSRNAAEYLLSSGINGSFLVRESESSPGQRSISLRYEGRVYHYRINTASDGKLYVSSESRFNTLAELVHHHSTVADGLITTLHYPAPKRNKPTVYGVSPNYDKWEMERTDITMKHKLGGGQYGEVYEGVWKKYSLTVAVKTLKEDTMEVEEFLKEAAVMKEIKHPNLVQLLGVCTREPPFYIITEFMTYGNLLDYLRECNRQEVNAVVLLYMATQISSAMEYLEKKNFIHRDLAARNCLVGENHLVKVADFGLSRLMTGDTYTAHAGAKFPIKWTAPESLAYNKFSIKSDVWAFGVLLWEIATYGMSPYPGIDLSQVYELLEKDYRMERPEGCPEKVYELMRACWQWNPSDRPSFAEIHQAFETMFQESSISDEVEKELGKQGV

What was measured:
ABL1 (64-515) [1] = biological target: T1, ABL1 (64-515) (Homo sapiens (Human), UniProt P00519); assay: Caliper ABL1 (64-515) assay (microfluidic mobility shift); assay type: biochemical
Ba/F3-BCR-ABL1-WT cells = assay: cells; conditions: Mus musculus, 48 h, read-out: Ba/F3-BCR-ABL1-WT IC50 [μM]
ABL1 (64-515) [2] = biological target: T1, ABL1 (64-515); assay: Radio ABL1 (64-515) assay (radiometric filter-binding); assay type: biochemical
BCR-ABL1+KCL-22 cells = assay: Acquired resistance in BCR-ABL1+KCL-22 cells in vitro; assay type: cell-based; conditions: cells treated every 3-4 days

IC50 (ABL1 (64-515) [1]) [nM]	IC50 (Ba/F3-BCR-ABL1-WT cells) [µM]	IC50 (ABL1 (64-515) [2]) [nM]	Compound	time until acquired resistance (BCR-ABL1+KCL-22 cells) [days]
2	0.0022	–	COc1ncc(-c2cc(C(=O)Nc3ccc(OC(F)(F)Cl)cc3)cnc2N2CC[C@@H](O)C2)c(OC)n1 [Example 298, (R)—N-(4-(Chlorodifluoromethoxy)phenyl)-5-(2,4-dimethoxypyrimidin-5-yl)-6-(3-hydroxypyrrolidin-1-yl)nicotinamide]	–
0.5	0.0009	1	O=C(Nc1ccc(C(F)(F)C(F)(F)Cl)cc1)c1cnc(N2CC[C@@H](O)C2)c(-c2cncnc2)c1 [Example 278, (R)—N-(4-(2-Chloro-1,1,2,2-tetrafluoroethyl)phenyl)-6-(3-hydroxypyrrolidin-1-yl)-5-(pyrimidin-5-yl)nicotinamide]	–
–	0.0024	< 3	O=C(Nc1ccc(OC(F)(F)F)cc1)c1ccc(N2CC[C@@H](O)C2)c(-c2cncnc2)c1 [Example 2, (R)-4-(3-Hydroxypyrrolidin-1-yl)-3-(pyrimidin-5-yl)-N-(4-(trifluoromethoxy)phenyl)benzamide]	–
0.2	0.0008	4	O=C(Nc1ccc(SC(F)(F)F)cc1)c1cnc(N2CC[C@@H](O)C2)c(-c2cncc(F)c2)c1 [Example 187, (R)-5′-Fluoro-2-(3-hydroxypyrrolidin-1-yl)-N-(4-((trifluoromethyl)thio)phenyl)-[3,3′-bipyridine]-5-carboxamide]	–
–	0.0216	–	Cc1ncncc1-c1cc(C(=O)Nc2ccc(OC(F)(F)Cl)cc2)cnc1N1C[C@H](O)[C@@H](O)C1 [Example 283, N-(4-(Chlorodifluoromethoxy)phenyl)-6-((3S,4S)-3,4-dihydroxypyrrolidin-1-yl)-5-(4-methylpyrimidin-5-yl)nicotinamide]	–
11	0.047	7	O=C(Nc1ccc(OC(F)(F)C(F)F)cc1)c1cnc(N2CC[C@@H](O)C2)c(-c2cncc(F)c2)c1 [Example 212, (R)-5′-Fluoro-2-(3-hydroxypyrrolidin-1-yl)-N-(4-(1,1,2,2-tetrafluoroethoxy)phenyl)-[3,3′-bipyridine]-5-carboxamide]	–
15	0.0435	11	O=C(Nc1ccc([S+]([O-])C(F)(F)F)cc1)c1cnc(N2CC[C@@H](O)C2)c(-c2cncc(F)c2)c1 (stereo partly drawn) [Example 222, 5′-Fluoro-2-((R)-3-hydroxypyrrolidin-1-yl)-N-(4-((trifluoromethyl)sulfinyl)phenyl)-[3,3′-bipyridine]-5-carboxamide]	–

Further lines, the compound ahead of its results:

Compound	IC50 (ABL1 (64-515) [1]) [nM]	IC50 (Ba/F3-BCR-ABL1-WT cells) [µM]	IC50 (ABL1 (64-515) [2]) [nM]	time until acquired resistance (BCR-ABL1+KCL-22 cells) [days]
O=C(Nc1ccc(OC(F)(F)F)cc1)c1ccc(N2CC[C@H](O)C2)c(-c2cncnc2)c1 [Example 1, (S)-4-(3-Hydroxypyrrolidin-1-yl)-3-(pyrimidin-5-yl)-N-(4-(trifluoromethoxy)phenyl)benzamide]	–	–	< 3	–
O=C(Nc1ccc(OC(F)(F)Cl)cc1)c1cnc(N2CC(CO)C2)c(-c2cncnc2)c1 [Example 260]	1	–	5.1	–
CN(CCO)c1ncc(C(=O)Nc2ccc(OC(F)(F)Cl)cc2)cc1-c1cncc(C#N)c1 [Example 181, N-(4-(Chlorodifluoromethoxy)phenyl)-5′-cyano-2-((2-hydroxyethyl)(methyl)amino)-[3,3′-bipyridine]-5-carboxamide]	0.2	0.0014	4	–
Cc1ncncc1-c1cc(C(=O)Nc2ccc(OC(F)(F)Cl)cc2)cnc1N1C[C@@H](O)[C@H](O)C1 [Example 282, N-(4-(Chlorodifluoromethoxy)phenyl)-6-((3R,4R)-3,4-dihydroxypyrrolidin-1-yl)-5-(4-methylpyrimidin-5-yl)nicotinamide]	0.9	–	–	–
Cc1nc(Nc2ncc(C(=O)Nc3c(C)cccc3Cl)s2)cc(N2CCN(CCO)CC2)n1 [dasatinib]	–	–	–	18 to 21
O=C(Nc1ccc(OC(F)(F)F)cc1)c1cnc(N2CCOC(CO)C2)c(-c2cncnc2)c1 (stereo not drawn) [Example 230]	6.1	–	3.9	–
O=C(Nc1ccc(OC(F)(F)F)cc1)c1cnc(N2CC[C@@H](O)C2)c(-c2ccccc2)c1 [Example 57, (R)-6-(3-Hydroxypyrrolidin-1-yl)-5-phenyl-N-(4-(trifluoromethoxy)phenyl)nicotinamide]	–	0.0066	7	–
CC(C)(O)C1CN(c2ncc(C(=O)Nc3ccc(OC(F)(F)F)cc3)cc2-c2cncnc2)C1 [Example 142, 6-(3-(2-Hydroxypropan-2-yl)azetidin-1-yl)-5-(pyrimidin-5-yl)-N-(4-(trifluoromethoxy)phenyl)nicotinamide]	–	0.0089	6	–
COc1ncc(-c2cc(C(=O)Nc3ccc(OC(F)(F)F)cc3)ccc2N2CC[C@@H](O)C2)cn1 [Example 4, (R)-4-(3-Hydroxypyrrolidin-1-yl)-3-(2-methoxypyrimidin-5-yl)-N-(4-(trifluoromethoxy)phenyl)benzamide]	–	0.0056	7	–
